Consider one compound from ChEMBL document CHEMBL4673256, “Pyrazol-1-yl-propanamides as SARD and Pan-Antagonists for the Treatment of Enzalutamide-Resistant Prostate Cancer” (J Med Chem, 2020).

This experiment deals with T1, Androgen receptor (Rattus norvegicus, UniProt P15207).
T1 sequence (P15207 whole entry): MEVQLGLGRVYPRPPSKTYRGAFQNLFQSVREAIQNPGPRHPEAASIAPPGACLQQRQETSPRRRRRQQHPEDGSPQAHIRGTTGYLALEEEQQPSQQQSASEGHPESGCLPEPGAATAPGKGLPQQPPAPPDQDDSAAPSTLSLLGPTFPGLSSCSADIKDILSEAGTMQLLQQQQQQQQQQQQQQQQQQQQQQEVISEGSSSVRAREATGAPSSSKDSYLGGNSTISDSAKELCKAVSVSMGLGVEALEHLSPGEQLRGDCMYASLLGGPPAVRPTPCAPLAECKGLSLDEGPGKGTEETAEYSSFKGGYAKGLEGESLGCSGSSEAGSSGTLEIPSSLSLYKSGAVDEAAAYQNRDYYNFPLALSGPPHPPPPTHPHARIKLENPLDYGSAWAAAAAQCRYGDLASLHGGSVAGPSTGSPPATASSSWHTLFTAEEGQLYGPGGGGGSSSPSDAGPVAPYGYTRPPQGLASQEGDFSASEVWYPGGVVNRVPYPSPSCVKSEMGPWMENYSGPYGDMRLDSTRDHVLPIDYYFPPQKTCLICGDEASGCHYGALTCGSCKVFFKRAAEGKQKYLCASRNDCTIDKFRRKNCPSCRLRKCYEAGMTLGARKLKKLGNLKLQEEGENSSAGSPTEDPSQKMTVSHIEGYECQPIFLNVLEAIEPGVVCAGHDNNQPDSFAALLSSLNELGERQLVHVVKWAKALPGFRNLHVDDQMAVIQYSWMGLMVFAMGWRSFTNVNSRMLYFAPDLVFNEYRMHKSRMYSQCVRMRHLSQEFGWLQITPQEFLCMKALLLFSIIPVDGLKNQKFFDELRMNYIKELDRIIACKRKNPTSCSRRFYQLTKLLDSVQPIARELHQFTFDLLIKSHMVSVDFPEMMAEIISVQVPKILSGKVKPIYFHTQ

What is called Ki is a measure of affinity in units of concentration, obtained from inhibition or displacement. Higher therefore signals lower affinity. As to `CC(Cn1cc(F)cn1)C(=O)Nc1ccc(C#N)c(C(F)(F)F)c1` (stereo unspecified), the Ki was above 10 µM.
